Measurements from patent US5409946A, “Isoxazole, isothiazole and pyrazole compounds that enhance cognitive function” (Abbott Laboratories, priority 1993, dated 1995).

Biological target: muscarinic receptors
Assay type: binding, rat
Settings: Table 2
Description: The potencies of ligand binding at central muscarinic binding sites were determined by analysis of competition with the specific muscarinic receptor radioligand [^3 H]-quinuclidinyl benzilate ([^3 H]-QNB). […] Competition between various concentrations of putative nicotinic ligand compounds and 0.2 nM [^3 H]-QNB was performed at 25° C. in an assay volume of 1 mL. After 75 minutes, the bound radioligand was separated by vacuum filtration on Whatman GF/B glass fiber filters. Non-specific binding was defined as radioactivity remaining in the presence of 10 μM atropine. Competition curves were analyzed for Ki values as described above for binding to the nicotinic receptor.

CN1CCCC1c1cccnc1 (single isomer, unassigned; (-)) [(-)-Nicotine]
Ki: 587 µM
